# Test results: ChEMBL document CHEMBL2203099, “Identification of a crucial amino acid in the helix position 6.51 of human tachykinin neurokinin 1 and 3 receptors contributing to the insurmountable mode of antagonism by dual NK₁/NK₃ antagonists” (J Med Chem, 2012)
# By UniProt entry, the sequences of proteins in these tests, tags left out.
# UniProt P29371, whole entry Y247W: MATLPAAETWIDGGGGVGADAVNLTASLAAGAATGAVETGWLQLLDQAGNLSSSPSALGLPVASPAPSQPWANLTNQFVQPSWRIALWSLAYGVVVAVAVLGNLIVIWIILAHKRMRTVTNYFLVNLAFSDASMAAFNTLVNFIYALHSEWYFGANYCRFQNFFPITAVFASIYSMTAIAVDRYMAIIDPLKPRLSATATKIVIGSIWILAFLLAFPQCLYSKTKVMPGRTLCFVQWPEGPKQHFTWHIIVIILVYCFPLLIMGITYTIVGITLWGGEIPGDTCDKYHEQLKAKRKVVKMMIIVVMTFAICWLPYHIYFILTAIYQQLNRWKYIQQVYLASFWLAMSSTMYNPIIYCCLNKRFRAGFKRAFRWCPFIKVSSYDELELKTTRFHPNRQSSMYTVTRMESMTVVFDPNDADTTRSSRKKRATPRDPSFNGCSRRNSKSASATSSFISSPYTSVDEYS
# UniProt P29371, whole entry H316F: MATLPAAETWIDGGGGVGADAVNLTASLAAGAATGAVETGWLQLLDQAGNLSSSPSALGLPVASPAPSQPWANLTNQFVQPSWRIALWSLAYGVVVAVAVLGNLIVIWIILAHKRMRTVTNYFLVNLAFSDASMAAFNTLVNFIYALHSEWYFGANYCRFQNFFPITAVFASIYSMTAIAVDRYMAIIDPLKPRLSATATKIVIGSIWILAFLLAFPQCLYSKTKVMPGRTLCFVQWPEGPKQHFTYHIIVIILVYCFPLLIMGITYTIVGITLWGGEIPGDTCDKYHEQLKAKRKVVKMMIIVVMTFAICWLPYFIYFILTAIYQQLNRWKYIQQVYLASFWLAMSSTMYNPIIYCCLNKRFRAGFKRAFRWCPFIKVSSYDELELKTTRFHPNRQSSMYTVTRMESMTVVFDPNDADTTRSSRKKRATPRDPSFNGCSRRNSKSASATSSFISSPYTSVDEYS
# UniProt P29371, whole entry H316W: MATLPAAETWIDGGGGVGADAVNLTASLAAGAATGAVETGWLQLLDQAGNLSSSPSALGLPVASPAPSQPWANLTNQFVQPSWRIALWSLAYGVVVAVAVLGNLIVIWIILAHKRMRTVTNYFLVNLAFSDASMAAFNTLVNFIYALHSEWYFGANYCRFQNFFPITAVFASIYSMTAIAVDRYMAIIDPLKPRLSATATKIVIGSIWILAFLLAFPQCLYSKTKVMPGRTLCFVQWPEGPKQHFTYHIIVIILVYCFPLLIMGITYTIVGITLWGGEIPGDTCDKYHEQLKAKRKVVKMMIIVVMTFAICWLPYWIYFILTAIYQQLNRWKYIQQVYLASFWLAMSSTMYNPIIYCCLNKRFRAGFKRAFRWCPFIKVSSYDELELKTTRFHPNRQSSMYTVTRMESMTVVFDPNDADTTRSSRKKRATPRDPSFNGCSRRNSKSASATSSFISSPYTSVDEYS
# UniProt P29371, whole entry: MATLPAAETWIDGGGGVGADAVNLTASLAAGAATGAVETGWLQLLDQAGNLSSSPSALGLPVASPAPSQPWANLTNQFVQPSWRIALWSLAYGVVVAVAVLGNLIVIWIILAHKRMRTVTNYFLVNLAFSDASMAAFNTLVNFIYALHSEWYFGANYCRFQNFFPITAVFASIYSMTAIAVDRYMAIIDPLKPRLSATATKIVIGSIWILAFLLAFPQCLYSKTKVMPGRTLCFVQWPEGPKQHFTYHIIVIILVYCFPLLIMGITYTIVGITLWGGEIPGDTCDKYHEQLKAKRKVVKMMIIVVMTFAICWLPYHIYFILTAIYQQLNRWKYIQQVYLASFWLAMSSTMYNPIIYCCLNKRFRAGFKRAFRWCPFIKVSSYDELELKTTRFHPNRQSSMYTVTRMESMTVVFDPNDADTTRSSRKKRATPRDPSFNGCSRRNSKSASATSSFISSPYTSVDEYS
# UniProt P29371, whole entry Y247F: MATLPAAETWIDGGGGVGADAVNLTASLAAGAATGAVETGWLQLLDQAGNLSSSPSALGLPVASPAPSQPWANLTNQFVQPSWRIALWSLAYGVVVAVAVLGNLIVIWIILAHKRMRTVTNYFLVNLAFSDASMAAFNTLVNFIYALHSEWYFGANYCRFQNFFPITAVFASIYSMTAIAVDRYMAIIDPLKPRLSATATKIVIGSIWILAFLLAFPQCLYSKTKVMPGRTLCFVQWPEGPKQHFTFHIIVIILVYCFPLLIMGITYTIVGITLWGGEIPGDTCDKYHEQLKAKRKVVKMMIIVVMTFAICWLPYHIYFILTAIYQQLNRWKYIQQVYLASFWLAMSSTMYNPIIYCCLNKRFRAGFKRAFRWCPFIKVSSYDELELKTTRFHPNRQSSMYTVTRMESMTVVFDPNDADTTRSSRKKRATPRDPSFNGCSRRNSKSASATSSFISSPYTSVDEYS
# UniProt P29371, whole entry Y315F: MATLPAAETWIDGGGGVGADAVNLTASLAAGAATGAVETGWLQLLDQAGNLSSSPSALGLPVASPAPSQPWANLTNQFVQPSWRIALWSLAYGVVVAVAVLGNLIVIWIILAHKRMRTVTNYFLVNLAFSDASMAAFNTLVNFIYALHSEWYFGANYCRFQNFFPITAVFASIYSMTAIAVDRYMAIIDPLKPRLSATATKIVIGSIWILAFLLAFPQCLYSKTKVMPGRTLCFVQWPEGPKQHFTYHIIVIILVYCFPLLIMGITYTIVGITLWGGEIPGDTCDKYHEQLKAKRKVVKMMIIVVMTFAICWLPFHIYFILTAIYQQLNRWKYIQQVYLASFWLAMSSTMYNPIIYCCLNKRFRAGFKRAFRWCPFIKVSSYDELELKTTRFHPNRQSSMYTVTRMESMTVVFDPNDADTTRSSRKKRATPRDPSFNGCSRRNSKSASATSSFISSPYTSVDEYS
# Experiments:
# Type in all cases: cell-based
# [1] = molecular target: T1, Neuromedin-K receptor (Homo sapiens, UniProt P29371, Y247W); test: Binding affinity to human NK3 Y247W mutant expressed in HEK293 cells assessed as [3H]IP accumulation after 45 mins
# [2] = molecular target: T2, Neuromedin-K receptor (Homo sapiens, UniProt P29371, H316F); test: Binding affinity to human NK3 H316F mutant expressed in HEK293 cells assessed as [3H]IP accumulation after 45 mins
# [3] = molecular target: T3, Neuromedin-K receptor (Homo sapiens, UniProt P29371, H316W); test: Binding affinity to human NK3 H316W mutant expressed in HEK293 cells assessed as [3H]IP accumulation after 45 mins
# [4] = molecular target: Neuromedin-K receptor (Homo sapiens, UniProt P29371); test: Binding affinity to wild type human NK3 receptor expressed in HEK293 cells assessed as [3H]IP accumulation after 45 mins
# [5] = molecular target: T4, Neuromedin-K receptor (Homo sapiens, UniProt P29371, Y247F); test: Binding affinity to human NK3 Y247F mutant expressed in HEK293 cells assessed as [3H]IP accumulation after 45 mins
# [6] = molecular target: T5, Neuromedin-K receptor (Homo sapiens, UniProt P29371, Y315F); test: Displacement of radioligand [3H]osanetant at human NK3 Y315F6.51 mutant expressed in HEK293 cells
# [7] = molecular target: T2, Neuromedin-K receptor; test: Displacement of radioligand [3H]osanetant at human NK3 H316F mutant expressed in HEK293 cells
# [8] = molecular target: T5, Neuromedin-K receptor; test: Competitive inhibition at human NK3 Y315F6.51 mutant expressed in HEK293 cells assessed as decrease in [MePhe7]NKB-induced [3H]IP accumulation after 20 mins; conditions: read-out: pA2 (converted)
# Method in brief: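 HEK293 cells transiently expressing human NK3 WT or mutant, labeled with myo-[³H]inositol in LiCl buffer. Antagonist preincubated 20 min at 37 °C, then [MePhe⁷]NKB (0.01 nM–1 μM) added for 45 min at 37 °C. [³H]IP read by SPA beads. Schild analysis of EC50 shift and Emax depression across increasing antagonist concentrations gives pA2, slope and mode of antagonism.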
# [9] = molecular target: T1, Neuromedin-K receptor; test: Displacement of radioligand [3H]osanetant at human NK3 Y247W mutant expressed in HEK293 cells
# [10] = molecular target: T4, Neuromedin-K receptor; test: Competitive inhibition at human NK3 Y247F5.38 mutant expressed in HEK293 cells assessed as decrease in [MePhe7]NKB-induced [3H]IP accumulation after 20 mins; conditions: read-out: pA2 (converted)
# [11] = molecular target: T3, Neuromedin-K receptor; test: Competitive inhibition at human NK3 H316W6.52 mutant expressed in HEK293 cells assessed as decrease in [MePhe7]NKB-induced [3H]IP accumulation after 20 mins; conditions: read-out: pA2 (converted)
# [12] = molecular target: T3, Neuromedin-K receptor; test: Displacement of radioligand [3H]osanetant at human NK3 H316W mutant expressed in HEK293 cells
SMILES,Kd [1] [nM],Kd [2] [nM],Kd [3] [nM],Kd [4] [nM],Kd [5] [nM],Ki [6] [nM],Ki [7] [nM],Kb [8] [nM],Ki [9] [nM],Kb [10] [nM],Kb [11] [nM],Ki [12] [nM]
[3H]c1cccc(C2(N(C)C(C)=O)CCN(CCC[C@]3(c4ccc(Cl)c(Cl)c4)CCCN(C(=O)c4ccccc4)C3)CC2)c1,1,0.08,2.2,0.2,0.7,–,–,–,–,–,–,–
CC(=O)N(C)C1(c2ccccc2)CCN(CCC[C@]2(c3ccc(Cl)c(Cl)c3)CCCN(C(=O)c3ccccc3)C2)CC1 [OSANETANT],–,–,–,–,–,10.8,0.4,29.5,2.1,5.89,17,4.8
